# Apparent affinities of Ab-14 variants for a coronavirus HR2 peptide

Reference: Li et al. 2023, doi:10.1038/s41467-023-39022-2. File: FLAb, binding data.

Target peptide (SARS-CoV-2 spike, HR2 region): PDVDLGDISGINAS

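Designed CDR sequences, proposed from the first random library and measured here. Group labels follow the data file (Ctrl: baseline library sampled from a position-specific scoring matrix, with some repeated check sequences; En: ensemble of fine-tuned language models; GP: Gaussian process model; HC: hill climbing; Gen: genetic algorithm; Gibbs: Gibbs sampling; a sequence that several methods proposed may carry one label only). The assay is AlphaSeq: two haploid yeast populations carry antibody and antigen on their surface. After mating in shaken culture at 30 °C for 16 h, diploids were selected and their barcode pairs sequenced. Scores were corrected for input abundance and mapped to Kd with protein pairs of known affinity run in the same pool. Mating was done six times.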

The variants keep the heavy chain, the linker and the frameworks of Ab-14 (scFv order VH, the linker GGGGSGGGGSGGGGS, VL).
VH: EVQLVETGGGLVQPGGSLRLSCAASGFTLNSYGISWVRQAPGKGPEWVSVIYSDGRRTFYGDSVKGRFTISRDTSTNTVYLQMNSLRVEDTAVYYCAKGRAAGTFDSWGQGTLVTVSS
VL: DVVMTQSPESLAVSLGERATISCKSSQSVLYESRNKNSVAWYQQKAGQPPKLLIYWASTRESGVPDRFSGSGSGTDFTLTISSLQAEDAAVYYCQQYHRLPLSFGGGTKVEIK

The parent's light chain CDRs are KSSQSVLYESRNKNSVA, WASTRES, QQYHRLPLS; each variant's own CDRs replace them letter for letter.
Values are apparent Kd, the geometric mean of the replicates that gave a signal; lower means stronger binding.
"nd" marks a missing value. The strain was present, yet no cells mated with the target were sequenced in any replicate, which points to weak or no binding.
The parent sequence was in this pool as ten entries: three were never detected, three once, and four in most replicates, with averages from 2.2 nM to 240 nM.
Values of this round are not directly comparable with the first-round values of the same sequences.
Empty control strains, which show no peptide, gave a signal in 4% of pairings with all light chain designs; the median was 430 nM and 95% of these signals were weaker than 38 nM. No background was subtracted. For each scFv, signals with the empty controls are counted beside the result.
In the paper, a design with two or fewer of six values counts as a poor binder.

CDR-L1	CDR-L2	CDR-L3	group	Kd (apparent)	detected	signal with controls
MVSQLMWWGMHAKNSIA	EAQTRIN	QQYDRLPLF	En_Gen	120 nM	1/6	0/18
KSSQADLYESNNSNSVA	WASTRES	QQYHRLPLS	Ctrl	35 nM	6/6	1/18
KLSIMHQVESINKSNVA	EMVTRES	QQYHRLPLS	En_HC	23 nM	6/6	2/18
QFDMHTIQIETIQSSIA	ETSCRAA	QSYVRLPLS	En_Gibbs	130 nM	3/6	1/18
ILYETVGTLSRNKNSVA	DNSTRES	QQYDRLPLS	En_HC	190 nM	2/6	0/18
KSAQSWLYESRYKNDVA	WASTRES	QYYLRLPLS	Ctrl	nd	0/6	0/18
MLSDLVKMGSRNTNSVA	DNSTRGA	QQYDRLPLS	En_HC	88 nM	2/6	1/18
KLSLSVLLESRDVNAVA	EASTRES	QDYHRLPLS	GP_Gibbs	17 nM	6/6	2/18
KLSQSWLYESRNKNSVA	EASTRED	QQYHRLPLS	GP_Gen	1.9 nM	6/6	0/18
KSSISMLIESRNKNSVA	EASTRES	QQYHRLPLS	GP_HC	9.2 nM	6/6	1/18
NSSQSVLYESRNKNSVA	YASTRES	QQYHRLPLS	Ctrl	200 nM	5/6	1/18
KSSQSVLMESLNKNSVA	HASTRIW	QQYHRLPLS	GP_Gibbs	14 nM	6/6	1/18
KSSQSVLYESQDKNSVA	WASTRES	QQYHRLPLS	Ctrl	48 nM	6/6	1/18
TSSQSVYYESRNCNSIA	WASTRES	QQYHRLPLS	Ctrl	930 nM	1/6	0/18
TLSDLMYMESRNVNSVA	DLVKRED	QQYHRLPLS	En_HC	1.5 nM	6/6	1/18
KLSQLWLYESRNKNSVA	NASTRLS	QQYHRLPLS	GP_Gen	2.8 nM	6/6	2/18
KLSMEHDYESRNKNSVA	QASQREW	QQYHRLPLS	GP_Gibbs	830 pM	6/6	0/18
KMSQSVEQLDRWWNSVA	YASQREQ	QQYHRLPLS	GP_Gibbs	49 nM	6/6	0/18
IISQVDGYLMHNTNSIA	DQTTRGK	QQYDRLPLS	En_HC	2.8 nM	6/6	1/18
TISQMTSLFSQSINNVA	EVSTREP	QQYDRLPLA	En_Gen	1.4 nM	6/6	0/18
MISQLFMYGSRNYNSIA	QASTREK	QQYDRLPLE	En_HC	14 nM	6/6	0/18
ALRGVGYDEQVKHSAIA	DGEHVNQ	QQYSMLPLS	En_Gibbs	3.2 nM	6/6	1/18
KSSQSVLYESENTNSVA	WASTRVS	QQYHRQPLS	Ctrl	310 nM	2/6	2/18
KSSQSVLYESRNKNSVA	NAEQRES	QQYHRLPLS	Ctrl	3.2 nM	6/6	0/18
KLPQATMQENVSKNSVA	ELSTRGS	QQYHRLPLS	En_HC	3.7 nM	6/6	0/18
SMFEKEYAELQPENNIA	DTTARMV	QQYFRLPLL	En_Gibbs	3.2 nM	6/6	0/18
NISHFMDVTAKNINNVA	EMTTREM	QQYHHLPLS	En_Gen	1.3 nM	6/6	0/18
KLSTSVLYESTNKNSVA	WASTREA	QQYHRLPLS	Ctrl	4.3 nM	6/6	2/18
HSSPSVAYESRNKNSVA	NASTRMS	QQYHRLPLS	GP_HC	1.9 nM	6/6	0/18
KFQQSELYESRNKNSVA	EASTRES	QQYHRLPLS	GP_Gen	840 pM	6/6	0/18
KLMQSMLYESRNKNSVA	NASTRMS	QQYHRLPLS	GP_Gen	870 pM	6/6	1/18
KLQQSELYESRNVNSVA	DASTRES	QQYHRLPLS	GP_Gibbs	730 pM	6/6	1/18
HLKTMPGQGPQTYSSIA	HAELRTP	QQYYRLPLM	En_Gibbs	4.4 nM	6/6	1/18

Further variants, results first:

Kd (apparent)	detected	signal with controls	CDR-L1	CDR-L2	CDR-L3	group
5.0 nM	5/6	1/18	TLMQVGGYEMNAHNSIA	DLRTREN	QQYHRLPLA	En_HC
2.9 nM	6/6	0/18	KCSQSWLYEDRVKNSVA	GASTRES	QQYHRLPLS	GP_HC
90 nM	6/6	0/18	QLSGPMLSESKKKNSVA	EFSTRGS	QQYHRLPLS	En_HC
660 pM	6/6	0/18	WLSTSVMLESRNVNSVA	SASTREE	QQYHRLPLS	GP_Gibbs
540 pM	6/6	3/18	KLSQSGLYESRNKNSVA	NASTRES	QQYHRLPLS	GP_Gen
610 pM	6/6	0/18	FLEQSVLYESRNKNSVA	NASTRES	QQYHRLPLS	GP_Gen
52 nM	6/6	0/18	ALGDVTRQESNKKNSIA	DMSNRES	QQYHRLPLS	En_HC
5.7 nM	6/6	1/18	ALGDVTRMESNKKNSIA	DMSTREE	QQYHRLPLS	En_HC
1.6 nM	6/6	1/18	KSSGSYLYESMNKNSVA	NGSTRES	QQYHRLPLS	GP_HC
63 nM	6/6	1/18	KLSMMYQHTSRNKNNIA	ERSTRES	QQYHHLPLS	En_HC
28 nM	6/6	0/18	HMHTIMYTENIGENSIA	DANLHVD	QQYFRLPIS	En_Gibbs
6.8 nM	6/6	1/18	KFSISWGMESRNKNSVA	NASHRMS	QQYHRLPLS	GP_Gibbs
1.9 nM	6/6	1/18	KVDQDDLYENRNCNSVA	QASTRES	QQYHRLPLS	GP_Gibbs
540 pM	6/6	3/18	KLKQSTLYESRNQNSVA	NASTRES	QQYHRLPLS	GP_HC
280 pM	6/6	0/18	KLSGSDLYESRNKNSVA	NASTRES	QQYHRLPLS	GP_Gen
460 pM	6/6	0/18	SLYDATQMESRNKNPIA	DVSTRPS	QQYHRLPLS	En_HC
2.1 nM	6/6	1/18	KSEQGVLYESRNKNSVA	GASTRES	QQYHRLPLH	GP_HC
14 nM	6/6	0/18	RLTQQMAGFNRHANNIA	STAVRQW	QQYARLPFI	En_Gibbs
1.1 µM	2/6	2/18	HLGLAQMLEEYVRNSVA	NNSTREK	QQYDRLPLS	En_Gen
3.3 nM	6/6	0/18	KSSQSVLYESGQKNSVA	AASTREQ	QQYHRLLLS	Ctrl
1.1 nM	6/6	1/18	KLLQSVLYQSRNKNSVA	HASTRED	QQYHQLPLS	GP_HC
1.4 nM	6/6	2/18	HFSQVTMYGYWNKNSVA	QTSTREE	QQYDRLPLS	En_HC
7.7 nM	6/6	0/18	KSSQSVLYESRNKNSVA	WASTRES	QQYHRLPLQ	Ctrl
5.5 nM	6/6	0/18	TLSQVQGMEMHNKDNVA	DLSTRGN	QQYDRLPLS	En_HC
4.9 nM	6/6	0/18	KSSQSDLYESRNFWSVA	GASTRES	QQYHRLPLS	GP_HC
4.5 nM	6/6	1/18	KIGGVTNGISRNKNSVA	EQSTREQ	QQYNRLPLS	En_HC
nd	0/6	0/18	KSSQSVLYESRNKNSVA	YASTRFS	QQYHRLPLS	Ctrl
nd	0/6	0/18	HLALRLSYGNMLNKAVA	EVQARVY	QQYARLPLL	En_Gibbs
980 pM	6/6	0/18	KLYQSQLYDSRNKNSVA	QASHREM	QQYHRLPLS	GP_Gibbs
640 pM	6/6	0/18	KLQQSVLYEDRNKNSVA	NASQRES	QQYHRLPLS	GP_Gen
330 pM	6/6	1/18	KISQSYLYESRNKNSVA	NASTRCS	QQYHRLPLS	GP_Gen
1.0 nM	6/6	3/18	KLQQSWLYESRNKNSVA	NASTRCD	QQYHRLPLS	GP_Gen
1.1 nM	6/6	0/18	KSSISGLYESRTKNSVA	EASTRES	QQYHRLPLS	GP_HC

3 of these entries, quoted again:

CDR-L1	CDR-L2	CDR-L3	group	Kd (apparent)	detected	signal with controls
IISQVDGYLMHNTNSIA	DQTTRGK	QQYDRLPLS	En_HC	2.8 nM	6/6	1/18
KSSQSDLYESRNFWSVA	GASTRES	QQYHRLPLS	GP_HC	4.9 nM	6/6	0/18
KSSQSVLYESRNKNSVA	NAEQRES	QQYHRLPLS	Ctrl	3.2 nM	6/6	0/18